From PubChem BioAssay (NCI)
Some tests of the compounds listed are not included; inactive here does not mean inactive elsewhere.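 The compound was tested at five concentrations on cells cultured in 96-well plates, with a 48-hour exposure period. Here, GI50 denotes the concentration required for 50% inhibition of growth. TGI: concentration producing complete growth inhibition.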

Columns and labels:
Assay in all cases: NCI tumour cell line growth inhibition, 48 h
[1] = test system: RXF 393 renal
[2] = test system: A549 NSCLC
[3] = test system: NCI-H460 lung
[4] = test system: OVCAR-4 ovarian
[5] = test system: MDA-MB-231 breast
[6] = test system: RPMI-8226 leukemia
[7] = test system: HS 578T breast
[8] = test system: HT29 colon
[9] = test system: LOX IMVI melanoma
[10] = test system: SF-268 CNS
[11] = test system: U251 CNS
[12] = test system: KM12 colon
[13] = test system: UACC-257 melanoma
[14] = test system: BT-549 breast
[15] = test system: OVCAR-3 ovarian
[16] = test system: NCI-H23 lung
[17] = test system: 786-0 renal
[18] = test system: COLO 205 colon
[19] = test system: OVCAR-8 ovarian
[20] = test system: IGROV1 ovarian
[21] = test system: SNB-19 CNS
[22] = test system: MDA-N
[23] = test system: HOP-92 NSCLC
[24] = test system: UACC-62 melanoma
[25] = test system: CCRF-CEM leukemia
[26] = test system: MDA-MB-435
[27] = test system: HCT-15 colon
[28] = test system: PC-3 prostate
[29] = test system: SF-295 CNS
[30] = test system: MOLT-4 leukemia
[31] = test system: HOP-62 NSCLC
[32] = test system: OVCAR-5 ovarian
[33] = test system: SNB-75 CNS
[34] = test system: EKVX NSCLC
[35] = test system: M14 melanoma
[36] = test system: SK-MEL-5 melanoma
[37] = test system: K-562 leukemia
[38] = test system: UO-31 renal
[39] = test system: ACHN renal
[40] = test system: HCC-2998 colon
[41] = test system: DU-145 prostate
[42] = test system: NCI/ADR-RES ovarian
[43] = test system: SK-MEL-2 melanoma
[44] = test system: SN12C renal
[45] = test system: CAKI-1 renal
[46] = test system: HCT-116 colon
[47] = test system: HL-60(TB) leukemia
[48] = test system: SW-620 colon
[49] = test system: SK-MEL-28 melanoma
[50] = test system: A498 renal
[51] = test system: SK-OV-3 ovarian
[52] = test system: MCF7 breast
[53] = test system: T-47D breast
[54] = test system: TK-10 renal
[55] = test system: SF-539 CNS

In the case of CC#CC(O)(C(=O)OC1CN2CCC1CC2)C(C)C (stereo not given), the GI50 [1] is reported as > 100 µM, the TGI [1] is reported as > 100 µM and the GI50 [2] is reported as > 100 µM. For the same compound, the TGI [2] was > 100 µM, the GI50 [3] was > 100 µM and the TGI [3] was > 100 µM. The GI50 [4] was > 100 µM, the TGI [4] was > 100 µM and the GI50 [5] was > 100 µM. The TGI [5] was > 100 µM, the GI50 [6] was > 100 µM and the TGI [6] was > 100 µM. The GI50 [7] was 54.1 µM, the TGI [7] was > 100 µM and the GI50 [8] was > 100 µM. The TGI [8] was > 100 µM, the GI50 [9] was > 100 µM and the TGI [9] was > 100 µM. For the same compound, the GI50 [10] was > 100 µM, the TGI [10] was > 100 µM and the GI50 [11] was > 100 µM. For the same compound, the TGI [11] was > 100 µM, the GI50 [12] was > 100 µM and the TGI [12] was > 100 µM. For the same compound, the GI50 [13] was > 100 µM, the TGI [13] was > 100 µM and the GI50 [14] was > 100 µM. For the same compound, the TGI [14] was > 100 µM, the GI50 [15] was > 100 µM and the TGI [15] was > 100 µM. For the same compound, the GI50 [16] was > 100 µM, the TGI [16] was > 100 µM and the GI50 [17] was > 100 µM. The TGI [17] was > 100 µM, the GI50 [18] was > 100 µM and the TGI [18] was > 100 µM. The GI50 [19] was > 100 µM, the TGI [19] was > 100 µM and the GI50 [20] was > 100 µM. The TGI [20] was > 100 µM, the GI50 [21] was > 100 µM and the TGI [21] was > 100 µM. The GI50 [22] was > 100 µM, the TGI [22] was > 100 µM and the GI50 [23] was > 100 µM. The TGI [23] was > 100 µM, the GI50 [24] was > 100 µM and the TGI [24] was > 100 µM. For the same compound, the GI50 [25] was > 100 µM, the TGI [25] was > 100 µM and the GI50 [26] was > 100 µM. The TGI [26] was > 100 µM, the GI50 [27] was > 100 µM and the TGI [27] was > 100 µM. The GI50 [28] was > 100 µM, the TGI [28] was > 100 µM and the GI50 [29] was > 100 µM. For the same compound, the TGI [29] was > 100 µM, the GI50 [30] was > 100 µM and the TGI [30] was > 100 µM. The GI50 [31] was > 100 µM, the TGI [31] was > 100 µM and the GI50 [32] was 0.18 µM. For the same compound, the TGI [32] was > 100 µM, the GI50 [33] was > 100 µM and the TGI [33] was > 100 µM. For the same compound, the GI50 [34] was > 100 µM, the TGI [34] was > 100 µM and the GI50 [35] was > 100 µM. For the same compound, the TGI [35] was > 100 µM, the GI50 [36] was > 100 µM and the TGI [36] was > 100 µM. The GI50 [37] was > 100 µM, the TGI [37] was > 100 µM and the GI50 [38] was > 100 µM. For the same compound, the TGI [38] was > 100 µM, the GI50 [39] was > 100 µM and the TGI [39] was > 100 µM. The GI50 [40] was > 100 µM, the TGI [40] was > 100 µM and the GI50 [41] was > 100 µM. The TGI [41] was > 100 µM, the GI50 [42] was > 100 µM and the TGI [42] was > 100 µM. The GI50 [43] was > 100 µM, the TGI [43] was > 100 µM and the GI50 [44] was > 100 µM. The TGI [44] was > 100 µM, the GI50 [45] was > 100 µM and the TGI [45] was > 100 µM. The GI50 [46] was > 100 µM, the TGI [46] was > 100 µM and the GI50 [47] was > 100 µM. The TGI [47] was > 100 µM, the GI50 [48] was > 100 µM and the TGI [48] was > 100 µM. The GI50 [49] was > 100 µM, the TGI [49] was > 100 µM and the GI50 [50] was > 100 µM. For the same compound, the TGI [50] was > 100 µM, the GI50 [51] was > 100 µM and the TGI [51] was > 100 µM. The GI50 [52] was > 100 µM, the TGI [52] was > 100 µM and the GI50 [53] was > 100 µM. For the same compound, the TGI [53] was > 100 µM, the GI50 [54] was > 100 µM and the TGI [54] was > 100 µM. The GI50 [55] was > 100 µM and the TGI [55] was > 100 µM.
